Data published in US10201625B2, “Radiolabelled octreotate analogues as PET tracers” (IMPERIAL COLLEGE, priority 2011, dated 2019).
Read-outs that look alike come from different tables or passages of the source.

Protein sequences, listed by entry. Tags and fused reporters are not part of them. Lines headed by an entry give the natural chain unless they say otherwise; changes in a name come on top.
UniProt P30680: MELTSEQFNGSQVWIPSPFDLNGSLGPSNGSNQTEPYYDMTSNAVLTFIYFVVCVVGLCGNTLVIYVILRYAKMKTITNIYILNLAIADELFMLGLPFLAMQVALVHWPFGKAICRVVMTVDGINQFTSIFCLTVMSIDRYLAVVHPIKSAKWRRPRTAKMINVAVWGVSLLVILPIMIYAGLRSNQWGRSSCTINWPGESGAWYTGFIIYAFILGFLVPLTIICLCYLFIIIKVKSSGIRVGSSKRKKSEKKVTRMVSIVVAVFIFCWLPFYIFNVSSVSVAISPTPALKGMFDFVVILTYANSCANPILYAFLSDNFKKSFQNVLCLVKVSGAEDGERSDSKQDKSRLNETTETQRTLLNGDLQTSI

What was measured:
HCT116 xenografts [1] = conditions: HCT116 tumor (low sstr-2)
HCT116 xenografts [2] = conditions: HCT116 tumor (low sstr-2); remark: listed apart in the source
AR42J tumor xenografts [3] = assay: Direct counting of tissue radioactivity (γ-counter), AR42J tumor; type: in vivo, mice
AR42J tumor xenografts [4] = assay: Dynamic PET imaging of AR42J tumor bearing mice; type: in vivo; conditions: for Tumor radiotracer uptake at 60 min by imaging: AR42J tumor
From the text: Briefly, tail veins were cannulated under general anesthesia (isofluorane).

[5] = mouse plasma 30 min after i.v. injection, radio-HPLC
somatostatin receptor = molecular target: T1, somatostatin receptor (Rattus norvegicus, UniProt P30680); assay: Competitive binding assay displacing [111In]-DTPA-Octreotide (OctreoScan) on AR42J tumour cells; conditions: [19F]-triazole, read-out: Triazole analogue (b) IC50
T1 construct: endogenous in cells; host or cells: AR42J pancreatic tumour cells (whole cells)

[6] = blocking: unlabelled octreotide 10 mg/kg i.v. 10 min before radiotracer

## FET-βAG-TOGA [5b]
HCT116 xenografts [1]
  Tumor radiotracer uptake at 60 min by imaging: 2.42 ± 0.35 % ID/ml
HCT116 xenografts [2]
  Tumor radiotracer uptake after 60 min by γ-counting: 0.52 ± 0.39 % ID/g
AR42J tumor xenografts [3]; after 60 min PET scan
  Tumor radiotracer uptake after 60 min by γ-counting: 11.58 ± 0.67 % ID/g
AR42J tumor xenografts [3]; [6]
  Tumor radiotracer uptake after 60 min by γ-counting: 3.93 ± 0.99 % ID/g
AR42J tumor xenografts [4]; 60 min, i.v.
  Tumor radiotracer uptake at 60 min by imaging: 8.23 ± 2.02 % ID/ml
AR42J tumor xenografts [4]; [6]
  Tumor radiotracer uptake at 60 min by imaging: 6.24 ± 0.64 % ID/ml
AR42J tumor xenografts [4]; PET, AR42J tumor bearing mice
  Kidney uptake in words: highest
  Liver uptake in words: lowest liver uptake
AR42J tumor xenografts [4]; PET, mice
  Bone uptake: low bone uptake
[5]; listed as FET-βAG-TOCA
  In vivo stability in plasma: only intact parent tracer was found
[5]; listed as [^18F]-FET-βAG-TOCA
  In vivo stability in plasma: stable radiotracer
Somatostatin receptor
  IC50: 1.6 ± 0.2 nM
